Tests used:
[1] = target: intracellular phosphorylation of EGFR (Tyr1068) in PC-9 cells (Ex19Del) (Homo sapiens, UniProt P00533, DEL746-750); test: PC-9 pEGFR AlphaLISA assay; type: cell-based; details: read-out: Ext pEGFR_PC-9 Ex19Del IC50, 4 hours compound incubation
EGFR L858R = EGFR L858R (Homo sapiens, UniProt P00533, L858R); test: Biochemical EGFR inhibition assay (Caliper mobility shift), EGFR L858R; details: read-out: Enz EGFR_L858R IC50; 1.0 mM ATP or ATP Km; room temperature (25° C.)
EGFR (d746-750) = EGFR (d746-750) (Homo sapiens, UniProt P00533, DEL746-750); test: Biochemical EGFR inhibition assay (Caliper mobility shift), EGFR (d746-750); details: read-out: Enz EGFR_Exon19-del746-750 IC50; 1.0 mM ATP or ATP Km; room temperature (25° C.)

Sequences of proteins named here, by UniProt entry; tags and fusion partners are left off. A change or cut given only in a name is not applied to a line headed by its entry. Residues count along the entry.
UniProt P00533, 25-1210 L858R limits assumed: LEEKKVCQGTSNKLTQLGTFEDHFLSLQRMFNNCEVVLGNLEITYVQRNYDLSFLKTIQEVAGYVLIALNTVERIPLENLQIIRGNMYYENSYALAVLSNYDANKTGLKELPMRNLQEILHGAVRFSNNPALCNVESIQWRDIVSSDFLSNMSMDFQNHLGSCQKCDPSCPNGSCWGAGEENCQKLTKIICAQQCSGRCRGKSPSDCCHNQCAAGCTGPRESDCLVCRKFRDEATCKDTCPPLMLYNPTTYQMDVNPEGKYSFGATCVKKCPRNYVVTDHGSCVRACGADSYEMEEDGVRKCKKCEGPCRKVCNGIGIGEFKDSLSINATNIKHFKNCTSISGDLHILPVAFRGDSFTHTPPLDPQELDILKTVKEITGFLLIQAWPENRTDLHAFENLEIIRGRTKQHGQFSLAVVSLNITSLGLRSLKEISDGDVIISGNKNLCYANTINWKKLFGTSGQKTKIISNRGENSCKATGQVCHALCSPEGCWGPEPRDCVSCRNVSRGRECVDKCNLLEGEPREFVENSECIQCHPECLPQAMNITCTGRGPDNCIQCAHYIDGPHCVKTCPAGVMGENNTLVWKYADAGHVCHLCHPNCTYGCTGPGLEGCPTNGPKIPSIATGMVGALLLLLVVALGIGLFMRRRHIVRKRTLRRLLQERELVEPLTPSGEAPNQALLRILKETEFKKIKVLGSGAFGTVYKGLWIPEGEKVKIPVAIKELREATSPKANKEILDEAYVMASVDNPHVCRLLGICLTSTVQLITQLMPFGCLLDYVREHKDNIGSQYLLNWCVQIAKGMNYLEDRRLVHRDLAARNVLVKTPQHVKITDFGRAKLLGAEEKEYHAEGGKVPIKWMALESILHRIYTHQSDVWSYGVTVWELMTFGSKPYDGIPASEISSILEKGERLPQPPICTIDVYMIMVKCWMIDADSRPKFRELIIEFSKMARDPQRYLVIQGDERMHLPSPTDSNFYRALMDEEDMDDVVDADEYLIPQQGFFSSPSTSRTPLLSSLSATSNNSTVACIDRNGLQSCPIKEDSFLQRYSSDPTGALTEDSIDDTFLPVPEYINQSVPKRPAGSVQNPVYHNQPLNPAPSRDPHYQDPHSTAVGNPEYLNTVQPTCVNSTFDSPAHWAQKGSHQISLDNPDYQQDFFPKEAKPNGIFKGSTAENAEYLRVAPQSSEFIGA

Measured: IC50

C[C@@H](Oc1cc(-c2cnn(C)c2)cc2ncnc(Nc3ccc4ncccc4c3F)c12)C1CCOC1 (single isomer, unassigned)
< 10 nM: all assays above

— patent US12662465B2, “EGFR inhibitors” (Blueprint Medicines Corporation, priority 2021, dated 2026)
